# Antibody variant affinities, Ab-14 heavy chain, assay B

All variants were tested on one target, the spike HR2 peptide PDVDLGDISGINAS (SARS-CoV-2).

The variants keep the light chain, the linker and the frameworks of Ab-14 (scFv order VH, a 15-residue (Gly4Ser)3 linker, VL).
VH: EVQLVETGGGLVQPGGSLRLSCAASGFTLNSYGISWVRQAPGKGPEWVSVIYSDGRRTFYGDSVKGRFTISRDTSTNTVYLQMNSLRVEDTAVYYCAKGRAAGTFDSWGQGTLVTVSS
VL: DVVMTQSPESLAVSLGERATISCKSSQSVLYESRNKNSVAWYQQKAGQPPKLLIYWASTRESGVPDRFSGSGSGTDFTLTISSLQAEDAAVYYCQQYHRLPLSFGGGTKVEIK

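This is the validation round: designs drawn from the data on random variants, tested in the same kind of assay. Group labels follow the data file (En: ensemble of fine-tuned language models; HC: hill climbing; Gen: genetic algorithm; Gibbs: Gibbs sampling; a sequence that several methods proposed may carry one label only). In AlphaSeq, yeast of one mating type display the scFv and yeast of the other type display the target. After mating in shaken culture at 30 °C for 16 h, diploids were selected and their barcode pairs sequenced. The ratio of observed to expected reads was calibrated, replicate by replicate, on BCL2-family standards whose Kd was known from biolayer interferometry. There are six technical replicates.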

The parent's heavy chain CDRs are GFTLNSYGIS, VIYSDGRRTFYGDSVK, GRAAGTFDS; each variant's own CDRs replace them letter for letter. Variants here have more than six changes. Kd is apparent (estimated from mating counts) and averaged on the log scale over replicates with a signal. Smaller is tighter. An entry "nd" has no value in the source: the pair was not observed among the diploids in any replicate. This suggests poor binding but is not conclusive. As a blank, each scFv also met three strains without target: over all heavy chain designs, 1% of these pairings were detected, typically at 120 nM and seldom below 7.0 nM.

* GFDLNEYGVS | VIYADGQRRAYAANFK | GVNAGGLDI [En_Gibbs]: nd (0 of 6 replicates)
* GFDLDEYGIS | VIYADGMRVSYDQNVK | GHGGGSFVF [En_Gibbs]: nd (0 of 6 replicates)
* GFQLEEYGIS | VIYADGSRTEYSDSVK | GKYKFNLIV [En_Gibbs]: nd (0 of 6 replicates)
* GFDVDKYGIS | VIYADGRRKAYQNQFK | GGQAGTFVN [En_Gibbs]: 91 µM (1 of 6 replicates)
* GFNLDEYGIS | VIYADGKRTAYSDSVK | GEVAGTFDV [En_Gen]: 460 pM (6 of 6 replicates)
* GFDLNEYGIS | VIYADGLRTSYDDSVK | GQIAGTFDQ [En_HC]: 820 pM (6 of 6 replicates)
* GFDLNEYGIS | VIYADGVRTAYADDVK | GANAGTFDV [En_Gen]: 1.2 nM (6 of 6 replicates)
* GFDLDQYGIS | VIYADGKRMAYTADVK | GVQGGNALV [En_Gibbs]: nd (0 of 6 replicates)
* GFSLDEYGIS | VIYADGQRVQYDDPFK | GEQAGNVDV [En_Gibbs]: nd (0 of 6 replicates)
* GFDLNEYGIS | VIYADGMRTQYADSVK | GNVAGTFDQ [En_Gen]: 450 pM (6 of 6 replicates)
* GEDLQEYGIS | VIYADGFRQSYSEKVK | GQHGGYLVK [En_Gibbs]: nd (0 of 6 replicates)
* GFDLNEYGIS | VIYADGRRTFYTDSVK | GELAGTFDQ [En_HC]: 250 pM (6 of 6 replicates)
* GFDLNEYGIS | VIYADGVRTAYADSVK | GHNAGTFDI [En_Gen]: 1.5 nM (6 of 6 replicates)
* GFDLDEYGIS | VIYADGLRTAYTDSVK | GENAGTFDV [En_Gen]: 16 nM (5 of 6 replicates)
* GFDLNEYGIS | VIYADGQRTAYADDVK | GNQAGTFDI [En_Gen]: 330 pM (6 of 6 replicates)
* GEVLDEYGIS | VIYADGQRVQYSDNVK | GLLSGAFDM [En_Gibbs]: nd (0 of 6 replicates)
* GFDLNEYGIS | VIYADGRRTFYADSVK | GETAGTFDQ [En_HC]: 340 pM (6 of 6 replicates)
* GKSLDEYGIS | VIYADGTRAFYTDNVK | GLISMVFGL [En_Gibbs]: nd (0 of 6 replicates)
* GFLLDEYGIS | VIYADGQRTAYTDDVK | GQYGGIGTI [En_Gibbs]: nd (0 of 6 replicates)
* GFSLQEYGIS | VIYADGMRTQYTPNVK | GQTGFDYGL [En_Gibbs]: nd (0 of 6 replicates)
* GFDLDEYGIS | VIYADGMRTAYADSVK | GSNAGTFDV [En_Gen]: 390 pM (6 of 6 replicates)
* GFDLNEYGIS | VIYADGMRTAYADSVK | GGNAGTFDV [En_Gen]: 550 pM (6 of 6 replicates)
* GFDLNEYGIS | VIYADGQRTAYADSVK | GNVAGTFDA [En_Gen]: 180 pM (6 of 6 replicates)
* GFDLNEYGIS | VIYADGSRKAYADSVK | GENAGTFDV [En_Gen]: 17 pM (2 of 6 replicates)
* GFDLNEYGVS | VIYADGQRTYYTESVK | GKFGDQLMA [En_Gibbs]: nd (0 of 6 replicates)
* GFDLNEYGIS | VIYADGMRTAYADSVK | GENAGTFNV [En_Gen]: 730 pM (6 of 6 replicates)
* GFDLNEYGIS | VIYADGMRTAYADNVK | GQNAGTFDL [En_Gen]: 330 pM (6 of 6 replicates)
* GFDLNEYGIS | VIYADGQRKAYADSVK | GNVAGTFDL [En_Gen]: 7.1 nM (6 of 6 replicates)
* GFDLNEYGIS | VIYADGFRTFYTDSVK | GEVAGTFDF [En_HC]: 200 pM (6 of 6 replicates)
* GFELSEYGIS | VIYADGHRSFVTDSVK | GQNAGAFNV [En_Gibbs]: 6.2 nM (6 of 6 replicates)
* GDSLDEYGIS | VIYADGQRKAYMDKVK | GNGQGTLFD [En_Gibbs]: nd (0 of 6 replicates)
* GFNLNEYGIS | VIYADGRRTFYADSVK | GGFAGTFDV [En_HC]: 480 pM (6 of 6 replicates)
* GFDLDEYGIS | VIYADGVRTVYADSVK | GENAGTFDV [En_Gen]: 1.7 nM (6 of 6 replicates)
* GFDLNEYGIS | VIYADGVRTAYSDKVK | GNVAGTFDL [En_Gen]: 290 pM (6 of 6 replicates)
* GFDLNEYGIS | VIYADGQRTAYADSVK | GKVAGTFDQ [En_HC]: 570 pM (6 of 6 replicates)
* GFDLNEYGIS | VIYADGKRQYYADSVK | GNVAGTFDV [En_Gen]: nd (0 of 6 replicates)
* GFDLNEYGIS | VIYADGQRSFYADSVK | GQNAGTFDV [En_HC]: 810 pM (6 of 6 replicates)
* GFDLQEYGIS | VIYADGHRTAYIQKVK | GQIVGGQFD [En_Gibbs]: nd (0 of 6 replicates)
* GFKIDEYGIS | VIYADGHRTAYSEQVK | GVNMGFMVE [En_Gibbs]: nd (0 of 6 replicates)
* GFDLDEYGIS | VIYADGKRTAYVDSVK | GENAGTFDI [En_Gen]: 240 pM (6 of 6 replicates)
* GFDLNEYGIS | VIYADGVRTVYADSVK | GTNAGTFDV [En_Gen]: 280 pM (6 of 6 replicates)
* GFDLNEYGIS | VIYADGRRTAYVDSVK | GNEAGTFDV [En_Gen]: 400 pM (6 of 6 replicates)
* GFDLDEYGIS | VIYADGKRTAYIDSVK | GEVAGTFDV [En_Gen]: 350 pM (6 of 6 replicates)
* GFDLDEYGIS | VIYADGSRTAYIDSVK | GENAGTFDV [En_Gen]: 1.0 nM (6 of 6 replicates)
* GFNLDEYGIS | VIYADGQRTAYAKNVK | GTFGMKRVV [En_Gibbs]: nd (0 of 6 replicates)

The last 6 entries again:

CDR-H1,CDR-H2,CDR-H3,group,apparent Kd,seen in
GFDLDEYGIS,VIYADGKRTAYVDSVK,GENAGTFDI,En_Gen,240 pM,6/6
GFDLNEYGIS,VIYADGVRTVYADSVK,GTNAGTFDV,En_Gen,280 pM,6/6
GFDLNEYGIS,VIYADGRRTAYVDSVK,GNEAGTFDV,En_Gen,400 pM,6/6
GFDLDEYGIS,VIYADGKRTAYIDSVK,GEVAGTFDV,En_Gen,350 pM,6/6
GFDLDEYGIS,VIYADGSRTAYIDSVK,GENAGTFDV,En_Gen,1.0 nM,6/6
GFNLDEYGIS,VIYADGQRTAYAKNVK,GTFGMKRVV,En_Gibbs,nd,0/6

A sequence measured in both rounds can read differently, since the two assays cover different ranges. The authors averaged sequences with at least three values out of six and counted those with two or fewer as poor binders.

The measurements come from Li et al. 2023 (doi:10.1038/s41467-023-39022-2) through the FLAb antibody collection.